Assay results: ChEMBL document CHEMBL1143267, “Type II NADH dehydrogenase of the respiratory chain of Plasmodium falciparum and its inhibitors” (Bioorg Med Chem Lett, 2009)

Tests used:
[1] = target: T1, Dihydroorotate dehydrogenase (fumarate) (Saccharomyces cerevisiae S288c, UniProt P28272); test: Inhibition of Saccharomyces cerevisiae DHOD
T1 sequence (P28272 whole entry): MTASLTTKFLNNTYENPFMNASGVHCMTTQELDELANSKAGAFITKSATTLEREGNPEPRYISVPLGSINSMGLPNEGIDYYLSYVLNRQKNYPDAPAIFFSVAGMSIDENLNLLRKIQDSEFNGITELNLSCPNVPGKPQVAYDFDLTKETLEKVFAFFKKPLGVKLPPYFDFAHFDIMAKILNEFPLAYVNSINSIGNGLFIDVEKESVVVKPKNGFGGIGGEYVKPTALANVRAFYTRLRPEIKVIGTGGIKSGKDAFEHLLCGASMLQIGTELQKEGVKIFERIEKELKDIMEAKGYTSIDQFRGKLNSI
Outline: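 Yeast cytoplasmic type I DHOD, assayed DCIP-coupled with 500 µM L-dihydroorotate and 115 µM fumarate as acceptor. Compounds tested up to 10 µM. IC50 from three independent experiments.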

Plasmodium falciparum [2] = test: Antimalarial activity against Plasmodium falciparum DD2 by [3H]hypoxanthine uptake; type: functional, organism-based
Outline: (§1)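 Asexual parasite proliferation measured by [3H]-hypoxanthine incorporation dose–effect curves, in parental DD2 and a transgenic DD2 line expressing yeast cytoplasmic DHOD. IC50 from three independent experiments. Antimycin A, a mixture of A1–A4, expressed in mg/mL.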

Plasmodium falciparum [3] = test: Antimalarial activity against Plasmodium falciparum DD2 expressing Saccharomyces cerevisiae DHOD by [3H]hypoxanthine uptake; type: functional, organism-based; outline: as §1

## c1ccc2c(c1)[I+]c1ccccc1-2 [DIPHENYLENEIODONIUM CHLORIDE]
[1]
  pIC50: < 5.00
Plasmodium falciparum [2]
  pIC50: 5.57
Plasmodium falciparum [3]
  pIC50: 5.52

pIC50: −log10 of the molar value.
